Measured values as given in patent publication US7732451B2, “Naphthalene-containing melanocortin receptor-specific small molecule” (Palatin Technologies, Inc., priority 2002, dated 2010).

The chains behind the UniProt entries cited, without tags or fusion partners.
UniProt P33032, whole entry: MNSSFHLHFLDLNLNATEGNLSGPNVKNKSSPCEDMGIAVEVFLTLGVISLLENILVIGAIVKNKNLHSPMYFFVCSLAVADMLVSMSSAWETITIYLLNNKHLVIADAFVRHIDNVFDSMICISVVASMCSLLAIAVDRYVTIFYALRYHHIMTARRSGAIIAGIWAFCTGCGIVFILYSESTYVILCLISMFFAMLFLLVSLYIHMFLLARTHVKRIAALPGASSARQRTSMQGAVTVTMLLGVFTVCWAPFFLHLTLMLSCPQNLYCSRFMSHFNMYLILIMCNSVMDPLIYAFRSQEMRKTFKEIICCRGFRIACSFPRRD
UniProt P32245, whole entry: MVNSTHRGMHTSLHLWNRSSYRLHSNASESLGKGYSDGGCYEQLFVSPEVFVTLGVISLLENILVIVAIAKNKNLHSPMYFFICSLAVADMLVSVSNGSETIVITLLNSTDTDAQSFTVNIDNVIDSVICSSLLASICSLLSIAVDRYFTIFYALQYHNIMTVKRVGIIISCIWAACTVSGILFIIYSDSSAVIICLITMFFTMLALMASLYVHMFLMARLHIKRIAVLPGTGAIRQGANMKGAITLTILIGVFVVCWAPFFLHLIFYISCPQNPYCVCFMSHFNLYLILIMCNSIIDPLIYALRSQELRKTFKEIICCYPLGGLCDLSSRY
UniProt Q01727, whole entry: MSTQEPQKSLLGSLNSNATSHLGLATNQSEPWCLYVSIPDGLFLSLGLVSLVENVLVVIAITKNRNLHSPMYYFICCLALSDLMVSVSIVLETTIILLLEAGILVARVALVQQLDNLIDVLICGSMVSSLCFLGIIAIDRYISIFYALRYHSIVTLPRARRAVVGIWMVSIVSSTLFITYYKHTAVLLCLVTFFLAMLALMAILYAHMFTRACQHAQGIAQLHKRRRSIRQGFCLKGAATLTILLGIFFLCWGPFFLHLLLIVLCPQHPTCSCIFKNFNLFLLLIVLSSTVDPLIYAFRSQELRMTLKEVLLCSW

Legend:
[1] = target: MC5-R (HEK-293 cells expressing MC5-R) (Homo sapiens, UniProt P33032); assay: cAMP assay for agonist/antagonist status; conditions: antagonism = inhibition of α-MSH-induced cAMP
[2] = target: MC4-R (HEK-293 cells expressing MC4-R) (Homo sapiens, UniProt P32245); assay: cAMP assay for agonist/antagonist status; conditions: antagonism = inhibition of α-MSH-induced cAMP
[3] = target: MC1-R (B-16 mouse melanoma cells) (Mus musculus, UniProt Q01727); assay: cAMP assay for agonist/antagonist status; conditions: antagonism = inhibition of α-MSH-induced cAMP
[4] = penile erection (PE) studies in male rats; conditions: IV, 1 μg/Kg, 30 minutes observation, stated below baseline

Row | SMILES | agonist/antagonist status as to MC5-R [1] | agonist/antagonist status as to MC4-R [2] | agonist/antagonist status as to MC1-R [3] | mean PE [4]
1 | N=C(N)NCCC[C@H]1C(=O)N2C(CC[C@@H]2COc2ccc3ccccc3c2)N1C(=O)[C@@H](Cc1ccc(Cl)cc1Cl)NC(=O)[C@@H]1Cc2ccccc2CN1 (stereo partly shown) | antagonist | antagonist | inactive | 0.125
2 | N=C(N)NCCC[C@H]1C(=O)N2C(CC[C@@H]2COc2ccc3ccccc3c2)N1C(=O)[C@@H](Cc1ccc(Cl)cc1Cl)NC(=O)[C@@H]1CC[C@H](c2ccccc2)N1 (stereo partly shown) | agonist | antagonist | agonist | 
